These results are taken from PubChem BioAssay AID1009 (NMMLSC, 2008).

By UniProt entry, the sequences of proteins in these tests, tags left out.
UniProt Q07820, whole entry: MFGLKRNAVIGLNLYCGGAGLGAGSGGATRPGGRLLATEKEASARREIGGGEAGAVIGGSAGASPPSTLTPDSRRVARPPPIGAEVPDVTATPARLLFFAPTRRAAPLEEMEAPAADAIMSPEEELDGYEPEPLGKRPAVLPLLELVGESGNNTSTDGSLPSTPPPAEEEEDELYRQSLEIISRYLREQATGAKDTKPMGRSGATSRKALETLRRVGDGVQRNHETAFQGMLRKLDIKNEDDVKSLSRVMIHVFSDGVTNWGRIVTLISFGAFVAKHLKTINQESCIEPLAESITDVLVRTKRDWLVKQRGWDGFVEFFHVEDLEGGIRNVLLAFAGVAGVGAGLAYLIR

Only a part is listed here, and it is no random draw. Active and inactive are the calls of the source. No stated cut-off is given here; in the data, active means inhibition above about 40%.

For the assay, the target named is Induced myeloid leukemia cell differentiation protein Mcl-1 (Homo sapiens) (UniProt Q07820). The experiment in a line: inhibitors of Bim peptide binding to Mcl-1, primary screen, biochemical, bead-based flow cytometry, multiplex (AID 1009).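 Further: 0% = no compound tracer wells and 100% = peptide blocker.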 The following applies: Bim peptide-Mcl-1 binding, at 10 µM, stronger effect = higher value. A general note: In flow cytometry, cells or beads pass a laser one at a time.
Broadly, the inhibition is the change of the read-out against control, counted positive when it falls. As to `COc1ccc(OP(C)(=O)Nc2ccc(Br)cc2)cc1` (centres undefined), the inhibition was inactive: -3%.
Regarding `CCN(CC)CC(O)COC(=O)C(O)(c1ccccc1)C1CCCCC1` (centres undefined), the inhibition was inactive: 6%.
The value for `CCc1ccc(OP(C)(=O)Nc2cccnc2)cc1` (centres undefined) was inactive: 1%; that for `CP(=O)(Oc1ccccc1)N1CCOC1=O` (centres undefined) was inactive: -1%.
Consider `COc1ccccc1OP(C)(=O)Nc1ccccc1Br` (centres undefined), for which the inhibition is inactive: 0%.
For the compound `CC(C)(C)c1ccc(OP(C)(=O)O)cc1`, the inhibition was inactive: 1%.
The value for `CP(=O)(Nc1ccc(Cl)cc1)Oc1ccc(F)cc1` (centres undefined) was inactive: -2%; that for `CN(C)C(=O)c1c([N+](=O)[O-])cc([N+](=O)[O-])cc1[N+](=O)[O-]` was inactive: 2%; that for `CCOC(=O)c1ccc(NP(C)(=O)Oc2ccc(Cl)cc2)cc1` (centres undefined) was inactive: -2%.
Take `CP(=O)(OC12CC3CC(CC(C3)C1)C2)OC12CC3CC(CC(C3)C1)C2`: the inhibition is inactive: -4%.
The value for `Cc1cc(C)cc(OP(C)(=O)Nc2cccc(C(F)(F)F)c2)c1` (centres undefined) was inactive: -1%; that for `COc1ccccc1OP(C)(=O)Nc1ccc(C)c(C)c1` (centres undefined) was inactive: 2%; that for `COc1ccc(OP(C)(=O)Nc2ccccc2Br)cc1` (centres undefined) was inactive: -6%.
The value for `Cc1nc2ccc3ccccc3c2o1.O=[N+]([O-])c1cc([N+](=O)[O-])c(O)c([N+](=O)[O-])c1` was inactive: 0%; that for `CP(=O)(Nc1ccc(Cl)cc1Cl)Oc1ccccc1` (centres undefined) was inactive: 0%; that for `CP(=O)(OCCOc1ccccc1)OCCOc1ccccc1` was inactive: -1%.
The value for `COc1ccc(OP(C)(=O)Nc2ccccn2)cc1` (centres undefined) was inactive: -4%; that for `CN(C)CCOC(=O)C(O)(c1ccccc1)C1CCCC1` (centres undefined) was inactive: 2%.
Take `Cc1c(NP(C)(=O)Oc2ccc(C(C)C)cc2)c(=O)n(-c2ccccc2)n1C` (centres undefined): the inhibition is inactive: 0%.
With `O=[N+]([O-])c1cc([N+](=O)[O-])c(Nc2ccccn2)c([N+](=O)[O-])c1`, the inhibition was inactive: 0%.
As to `COc1ccccc1OP(C)(=O)Nc1ccc(C)cc1C` (centres undefined), the inhibition was inactive: 1%.
On to `CP(=O)(Nc1ccccn1)Oc1ccccc1` (centres undefined), for which the inhibition is inactive: 0%.
Next, `CCc1ccc(OP(C)(=O)O)cc1`: inactive: 0%; `CP(=O)(Nc1ccccc1F)Oc1ccccc1` (centres undefined): inactive: 0%.
The value for `CC(C)c1ccc(OP(C)(=O)Nc2ccc(SC(F)(F)F)cc2)cc1` (centres undefined) was inactive: -24%; that for `O=C(OCCN1CCN(CCOCc2ccccc2)CC1)C(O)(c1ccccc1)c1ccccc1` was inactive: -7%; that for `CCOC(=O)c1ccc(NP(C)(=O)Oc2ccc(F)cc2)cc1` (centres undefined) was inactive: -3%.
Next, `COc1ccc(OP(C)(=O)Nc2ccc(SC(F)(F)F)cc2)cc1` (centres undefined): inactive: 0%; `CCN(CC)CCCOC(=O)C(O)(c1ccccc1)C1CCCCC1` (centres undefined): inactive: -2%.
For `CP(=O)(Nc1ccccc1)Oc1ccc(F)cc1` (centres undefined), the inhibition was inactive: -4%.
The value for `COc1ccc(OP(C)(=O)Nc2cccc(Br)c2)cc1` (centres undefined) was inactive: -3%; that for `CN(C)CCOC(=O)C(O)(c1ccccc1)C1CCCCC1` (centres undefined) was inactive: 0%; that for `COc1ccc(NP(C)(=O)Oc2ccccc2OC)cc1` (centres undefined) was inactive: -4%.
The value for `O=[N+]([O-])c1cc([N+](=O)[O-])c(NCC2CCS(=O)(=O)C2)c([N+](=O)[O-])c1` (centres undefined) was inactive: 0%.
Next, `CCOP(C)(=S)SCC(=O)NC(C)(CC)C(=O)O` (centres undefined): inactive: -1%.
As to `CP(=O)(Nc1ccc2c(c1)OCCO2)Oc1ccccc1` (centres undefined), the inhibition was inactive: -4%.
Next, `Cc1ccccc1NP(C)(=O)Nc1ccccc1C`: inactive: 0%; `O=[N+]([O-])c1cc([N+](=O)[O-])c(-n2nnc3ccccc32)c([N+](=O)[O-])c1`: inactive: -2%.
In the case of `Cc1nc2ccc3ccccc3c2s1.O=[N+]([O-])c1cc([N+](=O)[O-])c(O)c([N+](=O)[O-])c1`, the inhibition is inactive: -4%.
Regarding `CN1CCCCC1COC(=O)C1(O)c2ccccc2CCc2ccccc21` (centres undefined), the inhibition is inactive: -1%.
The value for `COc1ccccc1OP(C)(=O)Nc1c(C)cccc1C` (centres undefined) was inactive: 0%; that for `CCCOc1ccc(NP(C)(=O)Oc2ccc(Cl)cc2)cc1` (centres undefined) was inactive: -1%; that for `CP(=O)(Nc1ccc(SC(F)(F)F)cc1)Oc1ccccc1` (centres undefined) was inactive: -3%.
The value for `CC1=NCCc2c1[nH]c1ccccc21.O=[N+]([O-])c1cc([N+](=O)[O-])c(O)c([N+](=O)[O-])c1` was inactive: 0%.
Next, `CCOC(=O)c1ccc(NP(C)(=O)Oc2cc(C)cc(C)c2)cc1` (centres undefined): inactive: -1%; `Cc1cc(C)cc(OP(C)(=O)Nc2ccc(C)cc2C)c1` (centres undefined): inactive: 0%.
For the compound `Cc1ccc(C)c(NP(C)(=O)Oc2ccccc2)c1` (centres undefined), the inhibition is inactive: -4%.
The value for `Cc1cc(C)cc(OP(C)(=O)Nc2ccccn2)c1` (centres undefined) was inactive: -1%.
The value for `CP(=O)(Nc1cccc(Br)c1)Oc1ccccc1` (centres undefined) was inactive: 1%.
On to `CCN(CC)CCCOC(=O)C(O)(c1ccccc1)c1ccccc1`, for which the inhibition is inactive: -1%.
As for `O=[N+]([O-])c1ccc2c(c1)C=Nc1ccccc1O2`, the inhibition was inactive: 0%.
Next, `Cc1cccc(C)c1OP(C)(N)=O` (centres undefined): inactive: 0%.
As for `CC(C)(C)c1ccc(OP(C)(=O)Nc2ccc(SC(F)(F)F)cc2)cc1` (centres undefined), the inhibition is inactive: -3%.
Next, `Cc1ccc(NP(C)(=O)Oc2ccccc2)c(C)c1` (centres undefined): inactive: 1%; `COc1ccccc1OP(C)(=O)Nc1ccc(C)cc1` (centres undefined): inactive: 7%; `CCOC(=O)c1ccc(NP(C)(=O)Oc2ccccc2)cc1` (centres undefined): inactive: -4%.
The value for `Cc1cc(C)cc(OP(C)(N)=O)c1` (centres undefined) was inactive: -2%; that for `COc1ccc(OP(C)(=O)Nc2cccc(F)c2)cc1` (centres undefined) was inactive: 0%; that for `COc1ccccc1OP(C)(=O)Nc1cc(Cl)ccc1C` (centres undefined) was inactive: -4%.
Next, `CP(=S)(Nn1cnnc1)Oc1ccccc1` (centres undefined): inactive: -1%; `CP(=O)(Nc1ccccc1Br)Oc1ccccc1` (centres undefined): inactive: -1%; `COc1ccccc1OP(C)(=O)Nc1ccccc1` (centres undefined): inactive: -2%.
In the case of `CP(=O)(Oc1ccccc1)OC(c1ccccc1)C(F)(F)F` (centres undefined), the inhibition was inactive: -1%.
The value for `Cc1cccc(C)c1OP(C)(=O)Nc1ccc(SC(F)(F)F)cc1` (centres undefined) was inactive: 12%; that for `Cc1cc(C)cc(OP(C)(=O)Nc2ccc(SC(F)(F)F)cc2)c1` (centres undefined) was inactive: -2%; that for `CP(=O)(NC(=O)Nc1ccccc1)Oc1ccccc1` (centres undefined) was inactive: -4%.
The value for `CCOC(=O)c1ccc(NP(C)(=O)Oc2ccc(OC)cc2)cc1` (centres undefined) was inactive: -7%.
For `CCOP(C)(=S)SCC(=O)NC(C)C(=O)O` (centres undefined), the inhibition was inactive: 3%.
Regarding `CP(=O)(Nc1ccccn1)Oc1ccc(Cl)cc1` (centres undefined), the inhibition was inactive: -1%.
